For nine compounds, inhibition (IP1 accumulation) results are on record in PubChem BioAssay AID901 (National Center for Advancing Translational Sciences (NCATS), 2007).

Chains of the proteins cited; added tags and fusions are not shown.
UniProt P97697, whole entry: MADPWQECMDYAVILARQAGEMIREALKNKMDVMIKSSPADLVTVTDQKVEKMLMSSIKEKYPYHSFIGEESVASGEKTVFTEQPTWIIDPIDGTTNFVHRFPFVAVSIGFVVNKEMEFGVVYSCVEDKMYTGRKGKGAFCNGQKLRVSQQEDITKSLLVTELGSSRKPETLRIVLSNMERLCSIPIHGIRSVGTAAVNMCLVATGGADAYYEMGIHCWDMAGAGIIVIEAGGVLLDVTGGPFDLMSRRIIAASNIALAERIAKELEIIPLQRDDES

SMILES strings stand for the structures. The list shows a part of the results, in another mix than the full data. Inconclusive results are not listed. Active and inactive are the calls of the source. The call rests on the fitted dose curve; in most records, active means well fitted curve in the direction sought with a large enough effect in the signal ratio (not every such curve was filed as active); inconclusive means small, poorly fitted or top-dose-only effect, or a change in a side signal; inactive means no such curve, though single readings can be large or run the other way; the % refers to the signal ratio.

In the assay the target is Inositol monophosphatase 1 (Rattus norvegicus) (UniProt P97697). As to the kind of experiment: qHTS Assay for Identifying the Cell-Membrane Permeable IMPase Inhibitors.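 Further: higher means more IMPase inhibition seen as more IP1 and lower FRET ratio.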 Conditions: CHO-M1 cells, HTRF TR-FRET ratio; at 46.1 µM (top of the series). An excerpt:
NCGC IMPase Assay Overview
Lithium has been widely used for the treatment of bipolar disorder. But lithium has a narrow therapeutic index and it can cause side effects such as thirst, weight gain, tremor, polyuria and memory problems. Although the mechanism for lithium action in treatment of bipolar disorder is still not fully understood, inhibition of inositol monophosphatase (IMPase) and the subsequent depletion of the inositol pool in living cells have been implicated as the primary therapeutic benefit of lithium therapy. Therefore, a selective IMPase inhibitor with reduced side effects might be a good drug candidate to replace lithium for the treatment of bipolar disorder. Several IMPase inhibitors have been discovered previously. However, they are not suitable for therapeutic use because of their poor cell membrane penetrability or oral bioavailability; the development of new cell-permeable IMPase inhibitors is needed.
IMPase catalyzes the hydrolysis of inositol-1-phosphate (IP1) to release free inositol. Binding of an agonist to a Gq coupled GPCR results in the activation of PLC, which hydrolyzes the PIP2 to form inositol-1,4,5-trisphosphate (IP3) and diacyl glycerol (DAG). While DAG activates protein kinase C (PKC), IP3 triggers the elevation of intracellular free Ca2+. The IP3 is very rapidly inactivated by hydrolysis to IP2, IP1 and then inositol by a series of enzymes including IMPase. Free inositols are used for synthesis of PI and thus start another inositol cycle.
To identify new cell-permeable IMPase inhibitors, we developed a cell-based IMPase assay in which the cytosolic IP1 is measured by a time-resolved fluorescence resonance energy transfer (TR-FRET) assay. In this assay, an IP1 specific antibody is used to detect the labeled IP1 tracer. When the cell lysate contains the elevated IP1 due to the inhibition of IMPase, the TR-FRET between the labeled antibody and IP1 tracer is disrupted resulting in a reduction in the total signal. Since the TR-FRET is used, this cell-based assay is a homogenous assay without cell wash and medium change that is suitable for assay miniaturization and HTS.
NCGC IMPase Assay Protocol Summary
A Chinese hamster ovary (CHO) cell line stably expressing the M1 receptor (CHO-M1) was obtained from ATCC and maintained in F-12 Kaighn's media (Invitrogen, Carlsbad, CA, 21127) supplemented with 10 % FBS, 100 units/ml penicillin, 100 ug/ml streptomycin and 250 ug/ml geneticin at 37C, 5% CO2 in a humidified atmosphere. Before the assay, aliquots of cells were frozen and stored at -135C. The assay was performed in 1536-well format. Data are reported for both the ratio of the two emission wavelengths, and also for the component 'donor' channel, Em2=620. […] AC50 values were determined from concentration-response data modeled with the standard Hill equation.
IMPase 1536-well assay protocol:
(1) Plate 4 ul/well (2000 cells) of cell suspension from frozen CHO-M1 Cells in white, tissue culture treated 1536-well plates that are cultured at 37C, 5 % CO2 for 16 to 30 hours.
(2) Add 23 nl/well of compound in DMSO solution. The final titration for each compound was between 0.6 nM and 46 uM.
(3) Add 1 ul of carbachol (50 uM in stimulation buffer containing10mM HEPES, 1mM CaCl2, 0.5 mM MgCl2, 4.2 mM KCl, 146 mM NaCl, 5.5 mM glucose, 50mM LiCl, pH 7.4.
(4) Incubation at 37C, 5 % CO2 for 30 min.
(5) Add 1 ul/well of d2-conjugated IP1 (d2-IP1) and 1 ul/well of Eu+ cryptate conjugated anti-IP1 antibody (Eu+-Ab) prepared in the cell lysis buffer, both from the IP-One kit (Cisbio, MA).
(6) Incubate at room temperature for 10 minutes.
(7) Detect the assay plate (Ex = 320, Em1 =665 and Em2 620) in a ViewLux plate reader.
inositol monophosphatase, IMPase, IMPase inhibitor, lithium, bipolar disorder, IP-One, HTRF, qHTS, NIH roadmap, NCGC
Note: In the gene ID and protein GI references for this assay, rat IMPase is referenced instead of hampster as hamster accession numbers were not available.
Consider `O=C(NCC1(N2CCOCC2)CCCCC1)c1cc2ccccc2o1`, for which the inhibition (IP1 accumulation) was inactive: 0.1%.
With `O=C(OC1CN2CCC1CC2)C1c2ccccc2Oc2ccccc21` (centres undefined) the figure was inactive: 6.26%.
In the case of `COc1ccc(NC2CCN(CCc3ccccc3)CC2)c(OC)c1`, the inhibition (IP1 accumulation) is inactive: 11.9%.
Then `N#CC1(Nc2ccccc2)CCN(CCc2ccccc2)CC1`, with inactive: 4.09%.
With `O=C(NCC1(N2CCOCC2)CCCCC1)c1cc(=O)[nH]c2ccccc12` the figure was inactive: 5.59%; with `N/C(=N\O)c1c(N)no[n+]1[O-]`, inactive: -11%.
As for `c1ccc(CN2CCC(Nc3ccccc3)CC2)cc1`, the inhibition (IP1 accumulation) is inactive: 0.974%.
In the case of `Fc1ccccc1NC1CCN(Cc2ccccc2)CC1`, the inhibition (IP1 accumulation) was inactive: 6.65%.
With `CCC(CO)(C(=O)OC1CN2CCC1CC2)c1ccccc1` (centres undefined), the inhibition (IP1 accumulation) was inactive: 17.3%.
